Measured values published in publication PMC4704150 (Antimicrobial Agents and Chemotherapy, 2015).

Assay: Drug-drug interaction study, 2D regimen with warfarin
Format: in vivo, human healthy volunteers
Conditions: warfarin + 2D regimen, geometric mean (%CV)

Row | SMILES | AUC (AUC∞), Coadministration
1 | CC(=O)C[C@@H](c1ccccc1)c1c(O)c2ccccc2oc1=O [S-Warfarin, S-warfarin] | 11,000 (33)^b ng · h/ml
2 | CC(=O)C[C@H](c1ccccc1)c1c(O)c2ccccc2oc1=O [R-Warfarin, R-warfarin] | 16,700 (19)^b ng · h/ml

Marks after values point to notes of the source that are not given here.
